From US11448654B2, “Protein-protein interaction assessed by detecting localized coiled coil subunits” (The Regents of the University of California, priority 2017, dated 2022)

Sequences of proteins named here, by UniProt entry; tags and fusion partners are left off. Residues count along the entry.
UniProt Q00987, 26-109 limits assumed: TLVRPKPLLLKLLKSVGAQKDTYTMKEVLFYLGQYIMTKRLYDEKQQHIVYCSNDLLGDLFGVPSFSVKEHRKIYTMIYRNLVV

Target: T1, p53 and HDM2 (Homo sapiens, UniProt Q00987)
T1 construct: expressed in transfected cells; host or cells: HEK293
Experiment: Inducible SPARK system for dissociation of p53 and HDM2 in HEK293 cells
Assay type: cell-based
Conditions: added after rapamycin

effect on the green fluorescent droplets: not affected
half-time of disassembly of the infrared fluorescent droplets: ~2 min
SMILES: COc1ccc(C2=N[C@@H](c3ccc(Cl)cc3)[C@@H](c3ccc(Cl)cc3)N2C(=O)N2CCNC(=O)C2)c(OC(C)C)c1 [Nutlin-3a]
